From paper PMC5321205 (Journal of medicinal chemistry, 2016)

Sequences of proteins named here, by UniProt entry; tags and fusion partners are left off.
UniProt P34972, whole entry: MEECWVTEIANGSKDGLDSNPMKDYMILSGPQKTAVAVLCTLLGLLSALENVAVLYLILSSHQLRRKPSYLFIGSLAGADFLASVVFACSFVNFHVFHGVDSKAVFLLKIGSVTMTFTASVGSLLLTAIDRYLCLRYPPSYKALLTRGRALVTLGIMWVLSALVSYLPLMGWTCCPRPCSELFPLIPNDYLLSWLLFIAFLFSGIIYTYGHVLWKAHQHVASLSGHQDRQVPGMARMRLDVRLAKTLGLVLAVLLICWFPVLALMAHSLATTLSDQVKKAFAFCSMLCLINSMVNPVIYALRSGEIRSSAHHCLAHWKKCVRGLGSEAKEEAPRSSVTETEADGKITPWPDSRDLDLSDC

Biological target: hCB2R (Homo sapiens, UniProt P34972)
Assay: [35S]-GTPγS binding assay, CB2R-containing membranes

Molecule CCCCCCC(C)(C)c1cc(OC)c([C@@H]2C=C(CO)[C@@H]3C[C@H]2C3(C)C)c(OC)c1 [HU308, [(1R,2R,5R)-2-[2,6-dimethoxy-4-(2-methyloctan-2-yl)phenyl]-7,7-dimethyl-4-bicyclo-[3.1.1]hept-3-enyl] methanol, reference compound] has an IC50 of 0.0645 ± 0.0016 µM.
